# Measured values as given in US5763625A, “Synthesis and use of β-lapachone analogs” (priority 1995, dated 1998).
# What was measured:
# [1] = tested on: unirradiated U1-Mel cells
# purified human Topo I = target: T1, purified human Topo I (Homo sapiens, UniProt P11387); test: Topo I inhibition, DNA unwinding assay; assay type: biochemical
# T1 sequence (P11387 1-765): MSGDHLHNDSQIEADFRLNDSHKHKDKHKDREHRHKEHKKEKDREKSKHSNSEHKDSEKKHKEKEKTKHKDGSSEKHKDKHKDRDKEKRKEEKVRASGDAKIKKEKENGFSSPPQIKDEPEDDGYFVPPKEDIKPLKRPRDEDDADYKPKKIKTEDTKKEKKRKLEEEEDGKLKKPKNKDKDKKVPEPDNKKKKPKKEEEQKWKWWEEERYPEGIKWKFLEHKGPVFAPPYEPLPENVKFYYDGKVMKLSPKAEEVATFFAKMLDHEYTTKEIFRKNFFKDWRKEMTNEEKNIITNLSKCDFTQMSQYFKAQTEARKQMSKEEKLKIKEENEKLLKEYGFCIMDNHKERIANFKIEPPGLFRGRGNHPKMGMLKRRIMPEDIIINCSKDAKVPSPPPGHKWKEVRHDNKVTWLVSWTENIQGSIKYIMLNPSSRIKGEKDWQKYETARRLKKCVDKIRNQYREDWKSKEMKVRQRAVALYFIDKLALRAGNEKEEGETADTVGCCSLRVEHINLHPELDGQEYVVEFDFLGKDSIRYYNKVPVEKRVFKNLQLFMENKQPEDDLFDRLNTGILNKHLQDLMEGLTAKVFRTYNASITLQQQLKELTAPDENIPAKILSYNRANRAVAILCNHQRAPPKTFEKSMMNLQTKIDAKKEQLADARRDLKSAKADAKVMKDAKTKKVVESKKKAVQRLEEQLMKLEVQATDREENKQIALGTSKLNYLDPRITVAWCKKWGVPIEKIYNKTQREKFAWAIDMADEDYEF
# Topo I = target: T2, Topo I (Cricetulus griseus, UniProt Q07050); assay type: biochemical, Chinese hamster
# T2 construct: Extracts from unirradiated CHEF/18 cells and its neoplastic derivatives; endogenous in cells; host or cells: CHEF/18 cells and neoplastic derivatives 21-2M3 and T30-4 (extracts)
# T2 sequence (Q07050 1-767): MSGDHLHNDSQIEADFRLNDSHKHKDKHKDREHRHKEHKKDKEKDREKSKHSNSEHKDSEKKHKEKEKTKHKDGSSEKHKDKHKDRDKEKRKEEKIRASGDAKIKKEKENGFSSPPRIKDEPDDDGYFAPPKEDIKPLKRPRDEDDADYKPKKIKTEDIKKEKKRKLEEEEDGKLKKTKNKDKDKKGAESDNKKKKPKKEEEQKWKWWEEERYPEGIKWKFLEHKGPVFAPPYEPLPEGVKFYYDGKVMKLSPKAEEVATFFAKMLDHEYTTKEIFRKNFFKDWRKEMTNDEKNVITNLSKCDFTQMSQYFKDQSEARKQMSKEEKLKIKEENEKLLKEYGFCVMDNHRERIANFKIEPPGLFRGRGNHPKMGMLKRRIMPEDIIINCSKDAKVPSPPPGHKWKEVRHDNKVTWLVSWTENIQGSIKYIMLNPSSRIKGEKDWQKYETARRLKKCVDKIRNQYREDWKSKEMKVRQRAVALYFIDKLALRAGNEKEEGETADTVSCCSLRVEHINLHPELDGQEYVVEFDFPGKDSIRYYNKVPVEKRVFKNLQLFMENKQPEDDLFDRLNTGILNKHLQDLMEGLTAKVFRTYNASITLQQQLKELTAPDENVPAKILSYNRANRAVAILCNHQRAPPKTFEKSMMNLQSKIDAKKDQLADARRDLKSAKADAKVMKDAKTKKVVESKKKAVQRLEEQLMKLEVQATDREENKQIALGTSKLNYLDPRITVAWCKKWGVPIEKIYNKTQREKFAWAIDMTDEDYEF
smiles,measurement,setting,value
C=CCC1CC2=C(OC1(C)C)c1ccccc1C(=O)C2=O (centres unmarked),cytotoxicity of longer exposure times,[1],did not enhance cytotoxicity
same,effect on survival of unirradiated cells,[1],did not significantly effect survival
same,toxicity compared with similar treatments with β-lapachone,[1],less toxic
CC(C)=CCC1=C(O)C(=O)c2ccccc2C1=O [lapachol],inhibition of Topo I,purified human Topo I,did not inhibit Topo I
COc1cc(NS(C)(=O)=O)ccc1Nc1c2ccccc2nc2ccccc12 [m-AMSA],Topo I enzymatic activity in presence of Topo II inhibitor,Topo I,Enzymatic activity was observed
